pKi: −log10 of the molar value.
Target: Adenosine receptor A1 (Homo sapiens, UniProt P30542)
Assay: Displacement of [3H]DPCPX from A1 adenosine receptor (unknown origin) expressed in CHO cell membrane incubated for 60 mins at room temperature by NXT microplate scintillation counter analysis
Assay type: cell membranes

The chains behind the UniProt entries cited, without tags or fusion partners.
UniProt P30542, whole entry: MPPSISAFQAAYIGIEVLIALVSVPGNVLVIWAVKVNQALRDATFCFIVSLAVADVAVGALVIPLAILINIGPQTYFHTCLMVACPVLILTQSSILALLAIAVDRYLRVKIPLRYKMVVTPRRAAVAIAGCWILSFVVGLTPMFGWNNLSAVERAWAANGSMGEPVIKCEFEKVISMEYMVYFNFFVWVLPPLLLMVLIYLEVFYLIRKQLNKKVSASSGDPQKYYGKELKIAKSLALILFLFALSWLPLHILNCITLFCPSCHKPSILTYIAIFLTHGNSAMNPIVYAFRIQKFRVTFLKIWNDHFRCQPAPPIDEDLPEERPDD

Structure (SMILES): Nc1nc(-c2ccccc2)cc(-c2ccc3c(c2)OCO3)n1
- pKi: 6.27

Reference: ChEMBL document CHEMBL5042528, “Optimization of 2-Amino-4,6-diarylpyrimidine-5-carbonitriles as Potent and Selective A1 Antagonists” (J Med Chem, 2022)
